Test results published in BindingDB's records for PubMed 1706716 (Duke University, 1991).

Amino acid sequences for entries named in this document (tags omitted).
UniProt P15823, whole entry: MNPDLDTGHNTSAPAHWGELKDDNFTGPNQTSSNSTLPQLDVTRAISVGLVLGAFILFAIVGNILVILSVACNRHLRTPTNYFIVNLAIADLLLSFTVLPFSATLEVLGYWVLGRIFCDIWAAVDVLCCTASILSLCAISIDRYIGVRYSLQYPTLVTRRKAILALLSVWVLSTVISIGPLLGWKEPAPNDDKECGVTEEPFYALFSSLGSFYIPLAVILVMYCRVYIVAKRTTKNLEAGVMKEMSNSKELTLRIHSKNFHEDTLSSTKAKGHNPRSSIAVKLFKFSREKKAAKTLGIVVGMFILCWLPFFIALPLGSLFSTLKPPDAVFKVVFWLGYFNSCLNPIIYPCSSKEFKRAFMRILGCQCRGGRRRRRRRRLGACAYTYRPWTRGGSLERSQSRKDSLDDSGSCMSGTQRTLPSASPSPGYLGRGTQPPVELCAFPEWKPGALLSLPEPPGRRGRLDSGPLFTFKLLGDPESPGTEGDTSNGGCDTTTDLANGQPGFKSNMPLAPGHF

Target: Alpha-1B adrenergic receptor (Rattus norvegicus, UniProt P15823)

Structure (SMILES): CNCC(O)c1ccc(O)c(O)c1 (stereo unspecified) [EPINEPHRINE]
- Ki: 4.69 µM
